{
  "source": "patent US8975259B2",
  "about": "“Compositions and methods for inhibiting G protein signaling” (University of Rochester, priority 2007, dated 2015)",
  "test_system": "acute morphine antinociceptive tolerance in mice",
  "experiment": "Acute morphine antinociceptive tolerance (repeated i.c.v. dosing, tail-flick)",
  "assay_type": "in vivo, mouse",
  "settings": "morphine alone",
  "data": [
    {"smiles": "CN1CC[C@]23c4c5ccc(O)c4O[C@H]2[C@@H](O)C=C[C@H]3[C@H]1C5.O=S(=O)(O)O", "note": "[morphine, Morphine sulfate]", "values": [
      {"measurement": "shift of morphine ED50 from time 0", "setting": "4 hr", "result": 8, "unit": "fold"},
      {"measurement": "shift of morphine ED50 from time 0", "setting": "6 hr", "result": 16, "unit": "fold"}
    ]}
  ]
}
